Measured values from patent US20090104171A1, “Metabolic Enhancement Therapy” (priority 2007, published 2009).

Assay: Case study Example 4: person with acute anxiety disorder and depression
Settings: 2 years of treatment

Compound: Cc1nc2n(c(=O)c1CCN1CCC(c3noc4cc(F)ccc34)CC1)CCCC2 [Risperdol]
- side effects: negative side effects
